This is an account of results in article PMC5799093, “Proceedings of Réanimation 2018, the French Intensive Care Society International Congress” (Annals of Intensive Care, 2018).

Series [1] has as its system Stenotrophomonas maltophilia VAP. As to the kind of experiment: Risk factors for Stenotrophomonas maltophilia VAP, matched analysis. Format: in vivo, patients. The following applies: exposure during the week before VAP. Here is the method: Patients and methods: We conducted a retrospective analysis of prospectively collected data in a multicenter database in France. VAP was determined as microbiologically documented pneumonia occurring after at least two days of mechanical ventilation. All patients admitted from 2000 to 2015 presenting at least one episode of VAP were included. SM-VAP were compared with VAP due to other micro-organisms (VAP-other). To assess risk factors and day-30 (D30) mortality, SM-VAP were matched (1 − n) with VAP-other based on center, time from ICU admission to VAP occurrence, and SAPS II score.

The subject of series [2] is patients after out-of-hospital cardiac arrest. Description: Double-blind randomized trial of short-term antibiotic prophylaxis after cardiac arrest with therapeutic hypothermia (early VAP). The conditions noted are these: in vivo.
The nature of series [3]: Acute insulin overdose with suicidal attempt. Format: in vivo, patients.

As for Imipenem-Meropenem, the “OR for SM-VAP, multivariate analysis” value in series [1] is 2.68 [1.51;4.75]. Also, in series [1] (93 cases, 380 controls), the “OR for SM-VAP, univariate analysis” value is 3.18 [1.82 ; 5.49].
In the case of amoxicillin-clavulanic acid, the “adverse events related to study treatment” value in series [2] is “no adverse event was related to study treatment”.
Take insulin: the “median capillary glycaemia on the first medical contact” value in series [3] ([36 + 71], 62 patients) amounted to 44 mg·dL. In series [3] (in vivo), this substance registered a favorable outcome of 95% and a hypokalemia of 29%.
